Reference: patent publication US20170349533A1, “STABLE SOLID FORMS OF ENCLOMIPHENE AND ENCLOMIPHENE CITRATE” (F.I.S.- FABBRICA ITALIANA SINTETICI S.P.A, priority 2014, published 2017)
Like-named read-outs stand apart in the source and are kept apart here.

Details: room temperature, 95% RH

Row | Structure (SMILES) | outcome of comparative stability studies | outcome of comparative stability studies (listed as Enclomiphene having non-needle crystals)
1 | CCN(CC)CCOc1ccc(/C(=C(/Cl)c2ccccc2)c2ccccc2)cc1.O=C(O)CC(O)(CC(=O)O)C(=O)O [Enclomiphene citrate] | remains thermodynamically stabile | –
2 | CCN(CC)CCOc1ccc(/C(=C(/Cl)c2ccccc2)c2ccccc2)cc1.O=C(O)CC(O)(CC(=O)O)C(=O)O [Enclomiphene citrate having non-needle crystals] [trans-Clomiphene monocitrate] | – | fails the stability studies
